One series relates to Zein. In words: Zein solubility test method (irritation potential).
The nature of series [1]: Effect on solubility of 12 HSA (visual observation). Type of series: physicochemical.

From patent publication US11202743B2, “Personal care compositions comprising fatty acid amide derivatives” (Conopco, Inc., priority 2016, dated 2021) come the findings set out here.

“And” between values parts separate entries of the source, which are not always exact repeats. Equal values may be shown once.

For coco glycinate [reference compound], the Zein solubilty in the series with Zein (2% total surfactant in water, control, 1 g, co-surfactant 0 mg) is 77.2% and 80.6%.

Turning to “conjugated linoleyl glycinate acid [Compound 1]”, the Observation entry is “translucent/clear” in series [1] (41.18% Tween 60, 29.41% 12-HSA, 29.41% compound) and “translucent” in series [1] (41.67% Tween 60, 41.67% 12-HSA, 16.67% compound). Moreover, in the series on Zein (2% total surfactant and compound in water, SLG 20% 0.7 g + co-surfactant 60 mg), the Zein solubilty was 25% and 23%. Further, the “Irritation compared with control compounds (SLG, or coco glycinate)” value with Zein (Zein solubility test) is recorded as “less irritating”.
